In ChEMBL document CHEMBL1136834 (Bioorg Med Chem Lett, 2009) one finds Emax data, which are given here for four compounds.

Sequences of proteins named here, by UniProt entry; tags and fusion partners are left off. A change or cut given only in a name is not applied to a line headed by its entry.
UniProt P41145: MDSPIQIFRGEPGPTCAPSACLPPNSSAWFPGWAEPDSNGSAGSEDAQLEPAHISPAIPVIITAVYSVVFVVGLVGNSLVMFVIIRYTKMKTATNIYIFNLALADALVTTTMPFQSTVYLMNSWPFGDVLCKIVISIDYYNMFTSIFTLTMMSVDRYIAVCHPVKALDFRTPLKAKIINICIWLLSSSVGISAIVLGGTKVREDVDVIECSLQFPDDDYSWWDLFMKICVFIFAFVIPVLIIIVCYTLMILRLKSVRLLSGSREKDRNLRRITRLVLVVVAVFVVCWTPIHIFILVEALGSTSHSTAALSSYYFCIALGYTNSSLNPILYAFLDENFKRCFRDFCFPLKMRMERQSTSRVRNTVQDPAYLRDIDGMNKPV

Molecules are shown by their SMILES.

For the test, the target named is Kappa-type opioid receptor (Homo sapiens, UniProt P41145). Nature of the test: Agonist activity at human kappa opioid receptor expressed in CHO cells assessed as stimulation of [35S]GTPgammaS binding relative to basal [35S]GTPgammaS binding. It is filed as functional, cell-based. (In general: GTPγS resists hydrolysis and so accumulates on activated G proteins.)

Usually Emax stands for the size of the effect at its maximum, as opposed to the concentration needed.

For `C[C@H]1C2Cc3cc4nn[nH]c4cc3[C@@]1(C)CCN2CC1CC1`, the Emax was found to be 110%.
Under `Cc1nc2cc3c(cc2[nH]1)[C@@]1(C)CCN(CC2CC2)C(C3)[C@@H]1C` stands 73%.
Under `C[C@H]1C2Cc3ccc4[nH]nnc4c3[C@@]1(C)CCN2CC1CC1` stands 65%; under `C[C@H]1C2Cc3cc4nc[nH]c4cc3[C@@]1(C)CCN2CC1CC1`, 69%.
